# Measured values published in US20200297862A1, “METHODS OF USING BISPECIFIC ANTIGEN-BINDING CONSTRUCTS TARGETING HER2” (Zymeworks Inc., priority 2016, published 2020).
# Where two headings read alike, the source gives them in different places.
# How the values were obtained:
# OVXF1320 xenograft = assay: PDX model of HER2 positive ovarian cancer (Example 54); format: in vivo, athymic nude mice
# ST1616B/TDR xenograft = assay: PDX model of T-DM1 resistant HER2 overexpressing breast cancer (Example 55); format: in vivo, athymic nude mice
# Experimental: ST1616B/TDR was derived from a metastatic lung biopsy of a patient with breast carcinoma after receiving T-DM1 treatment. ST1616B/TDR overexpresses HER2/ERBB2 (HER2 3+) and is resistant to T-DM1.
# To compare growth rates between treatment groups, a linear mixed-effect model was fit to log transformed tumor volumes over time. Two-sided t-test of tumor growth rate parameters was performed to assess differences in growth rate between treatment groups, and the resulting p-values were adjusted for multiple tests using the Holm-Bonferroni procedure. Adjusted p-values below 0.05 were considered statistically significant.
# HBCx-13B xenograft = assay: PDX model of HER2 positive breast cancer, v10553 (Example 53); format: in vivo, athymic nude mice
# JIMT-1 cells [1] = assay: Growth inhibition of HER2+ cells (cell viability); format: cell-based, human; conditions: 300 nM antibody, 3 days; Table 11B
# JIMT-1 cells [2] = assay: Whole cell loading and internalization (AlexaFluor 488 labelled antibody, flow cytometry); format: cell-based, human; conditions: 200 nM labelled antibody, Table 40; for Surface 4° C.: 2 h at 4° C.; for Internal 37° C. / Surface 37° C.: 24 h at 37° C.
# BT-474 cells [3] = assay: Growth inhibition in the presence or absence of exogenous ligands (EGF, HRG); format: cell-based, human
# BT-474 cells [4] = assay: Growth inhibition of HER2+ cells (cell viability); format: cell-based, human; conditions: 200 nM antibody, 3 days; Table 11A
# Experimental: The ability of an exemplary biparatopic anti-HER2 antibody to inhibit growth of cells expressing HER2 at the 3+ and 2+ level was measured. […] The ability of the biparatopic anti-HER2 antibodies to inhibit the growth of BT-474 cells (200 nM antibody); SKOV3, SKBr3 and JIMT-1 cells (300 nM antibody) was measured as described below.
# Test antibodies were diluted in media and added to the cells at 10 μl/well in triplicate. The plates were incubated for 3 days 37° C. Cell viability was measured using either AlamarBlue™ (Biosource # dal1100), or Celltiter-Glo® and absorance read as per the manufacturer's instructions. Data was normalized to untreated control and analysis was performed in GraphPad prism.
# SKBr3 cells = assay: Growth inhibition of HER2+ cells (cell viability); format: cell-based, human; conditions: 300 nM antibody, 3 days; Table 11B
# MCF7 cells [5] = assay: Whole cell loading and internalization (AlexaFluor 488 labelled antibody, flow cytometry); format: cell-based, human; conditions: 200 nM labelled antibody, Table 41; for Surface 4° C.: 2 h at 4° C.; for Internal 37° C. / Surface 37° C.: 24 h at 37° C.
# SKOV3 cells [6] = assay: Growth inhibition of HER2+ cells (cell viability, AlamarBlue or Celltiter-Glo); format: cell-based, human; conditions: 300 nM antibody, 3 days
# JIMT-1 cells [7] = assay: Binding to HER2+ cells by flow cytometry (FACS): Bmax and apparent KD; set-up: species or system human; conditions: for Kd: apparent KD
# Experimental: (§1) The following experiment was performed to measure the ability of an exemplary biparatopic anti-HER2 antibody to bind to cells expressing varying levels of HER2 in comparison to controls. […] The ability of the biparatopic anti-HER2 antibodies to bind to the HER2 expressing (HER2+) cells was determined as described below, with specific measurement of Bmax and apparent KD (equilibrium dissociation constant).
# (§2) Binding of the test antibodies to the surface of HER2+ cells was determined by flow cytometry. Cells were washed with PBS and resuspended in DMEM at 1×10^5 cells/100 μl. 100 μl cell suspension was added into each microcentrifuge tube, followed by 10 μl/tube of the antibody variants. The tubes were incubated for 2 hr 4° C. on a rotator. The microcentrifuge tubes were centrifuged for 2 min 2000 RPM at room temperature and the cell pellets washed with 500 μl media. Each cell pellet was resuspended 100 μl of fluorochrome-labelled secondary antibody diluted in media to 2 μg/sample. The samples were then incubated for 1 hr at 4° C. on a rotator. After incubation, the cells were centrifuged for 2 min at 2000 rpm and washed in media. The cells were resuspended in 500 μl media, filtered in tube containing 5 μl propidium iodide (PI) and analyzed on a BD LSR II flow cytometer according to the manufacturer's instructions. The KD of exemplary biparatopic anti-HER2 heterodimer antibody and control antibodies were assessed by FACS with data analysis and curve fitting performed in GraphPad Prism.
# MCF7 cells [8] = assay: as above; set-up: species or system human; conditions: for Kd: apparent KD
# Experimental: as §1, §2
# BT-474 cells [9] = assay: Whole cell loading and internalization (AlexaFluor 488 labelled antibody, flow cytometry); format: cell-based, human; conditions: 200 nM labelled antibody, Table 39; for Surface 4° C.: 2 h at 4° C.; for Internal 37° C. / Surface 37° C.: 24 h at 37° C.
# WI-38 cells = assay: Binding to basal HER2 cells by flow cytometry (FACS); set-up: species or system human; conditions: Table 10, FIG. 6G
# Experimental: as §2
# SKOV3 xenograft [10] = assay: Human ovarian cancer cell xenograft model, antibody (Example 16); format: in vivo, athymic nude mice
# SKOV3 cells [11] = assay: ADCC (LDH release); format: cell-based, human
# JIMT-1 cells [12] = assay: ADCC, NK effector cells E:T 5:1; format: cell-based, human
# Experimental: Target cells were pre-incubated with test antibodies (10-fold descending concentrations from 45 μg/ml) for 30 min followed by adding effector cells with effector/target cell ratio of 5:1 and the incubation continued for 6 hours at 37° C.+5% CO2. Samples were tested with 8 concentrations, 10 fold descending from 45 μg/ml. LDH release was measured using LDH assay kit.
# Dose-response studies were performed with various concentrations of the samples with a effector/target (E/T) ratios of 5:1. 3:1 and 1:1. Half maximal effective concentration (EC50) values were analyzed with the sigmoidal dose-response non-linear regression fit using GraphPad prism.
# The ADCC experiments were performed as described in Example 11 with the exception that NK effector cell to target cell ratio remained constant at 5:1.
# (§3) The ADCC experiment was conducted as described in Example 11 with E/T: 5:1 with NK-92 effector cells. FIG. 43A and Table 43 show the ADCC results in HER2 2+ JIMT-1 breast tumor cells.
# MCF7 cells [13] = assay: ADCC, NK-92 effector cells E/T 5:1; format: cell-based, human; conditions: NK-92 E/T 5:1, Table 44
# Experimental: as §3
# MDA-MB-231 cells = assay: ADCC, NK effector cells E:T 5:1; format: cell-based, human
# BT-474 cells [14] = assay: Binding to HER2+ cells by flow cytometry (FACS), format comparison; set-up: species or system human; conditions: Table 35
# Experimental: as §2
# SKOV3 xenograft [15] = assay: Trastuzumab sensitive ovarian cancer xenograft, antibodies (Example 34); format: in vivo, athymic nude mice
Substance,% Survival JIMT-1 HER2 2+ (JIMT-1 cells [1]),Surface 4° C. (JIMT-1 cells [2]),Internal 37° C. (JIMT-1 cells [2]),Surface 37° C. (JIMT-1 cells [2]),% Survival +EGF (BT-474 cells [3]; Table 46),% Survival +HRG (BT-474 cells [3]; Table 46),% Survival Antibody only (BT-474 cells [3]; Table 46),% Survival SKBr3 HER2 3+ (SKBr3 cells),Surface 4° C. (MCF7 cells [5]),Internal 37° C. (MCF7 cells [5]),Surface 37° C. (MCF7 cells [5]),Bmax (JIMT-1 cells [7]; Table 36),Kd (JIMT-1 cells [7]; Table 36),"Bmax (MCF7 cells [8]; Table 8, FIG. 6F)",Bmax (MCF7 cells [8]; Table 37),"Kd (MCF7 cells [8]; Table 8, FIG. 6F)",Kd (MCF7 cells [8]; Table 37),Surface 4° C. (BT-474 cells [9]),Internal 37° C. (BT-474 cells [9]),Surface 37° C. (BT-474 cells [9]),other results
"ado trastuzumab emtansine [v7155, reference compound]",–,–,–,–,–,–,–,–,–,–,–,–,–,–,–,–,–,–,–,–,"Tumor Growth Rate Inhibition vs v17891 (OVXF1320 xenograft; 5 mg/kg iv Day 1, 8, 15, 22): 64.9%; 3D RECIST Scores (day 53) CR (≤−95% of baseline) (OVXF1320 xenograft; 5 mg/kg iv, day 53): 0/10; 3D RECIST Scores (day 53) PD (>+73% of baseline) (OVXF1320 xenograft; 5 mg/kg iv, day 53): 6/10; Tumor Growth Rate Inhibition vs v12470 (ST1616B/TDR xenograft; 5 mg/kg iv Day 0, 7, 14, 21): −34.7%; reduction of growth rate compared to v12470 (ST1616B/TDR xenograft; mouse, in vivo): −34.7%; Tumor Growth Inhibition (HBCx-13B xenograft; 3 mg/kg iv Day 1 and Day 15, vs vehicle): 62.6%; 3D RECIST Scores CR (≤−95% of baseline) (HBCx-13B xenograft; 3 mg/kg iv, day 32): 0/15; 3D RECIST Scores PR (−95% and <−66% of baseline) (HBCx-13B xenograft; 3 mg/kg iv, day 32): 0/15; 3D RECIST Scores SD (≥−66% and ≤+73% of baseline) (HBCx-13B xenograft; 3 mg/kg iv, day 32): 0/15"
"v506: wild-type anti HER2 produced in-house in CHO cells, trastuzumab analog, homodimeric Fc [reference compound]",107%,337,759,−7.1,118%,141%,53%,52%,48,48,10,2574,3.5 nM,571,889,3.5 nM,12 nM,2156,3453,1590,"% Survival +HRG (BT-474 cells [3]; 10 ng/mL HRG, 5 days, Table 26): 129%; % Survival +EGF (BT-474 cells [3]; 50 ng/mL EGF, 5 days, Table 26): 114%; % Survival Antibody only (BT-474 cells [3]; 5 days, Table 26): 41%; % Survival BT-474 HER2 3+ (BT-474 cells [4]): 37%; % Survival SKOV3 HER2 2+/3+ (SKOV3 cells [6]; Table 11A): 88%; % Survival SKOV3 HER2 2+/3+ (SKOV3 cells [6]; Table 11B): 107%; Bmax (JIMT-1 cells [7]; Table 6, FIG. 6B): 4905; Kd (JIMT-1 cells [7]; Table 6, FIG. 6B): 1.88 nM; Bmax (MCF7 cells [8]; Table 7, FIG. 6C): 542; Kd (MCF7 cells [8]; Table 7, FIG. 6C): 1.3 nM; Bmax (WI-38 cells): ~366; % TGI (SKOV3 xenograft [10]; Day 22): 32%; Responders (TV < 50% of control) (SKOV3 xenograft [10]; Day 22): 5/15; Mean TV % change from Baseline (SKOV3 xenograft [10]; Day 22, n = 15): +486%; Mean TV (mm3) (SKOV3 xenograft [10]; Day 22, n = 15): 1291 mm3; Median Survival (SKOV3 xenograft [10]; mouse, in vivo): 36 days"
"v792: wild-type trastuzumab with IgG1 hinge and heterodimeric Fc, trastuzumab analog",–,–,–,–,–,–,–,–,–,–,–,–,–,–,–,–,–,–,–,–,"% Max Cell Lysis (SKOV3 cells [11]; E:T 1:1, Table 14): 7.529%; EC50 (SKOV3 cells [11]; E:T 1:1, Table 14, read-out: EC50): 1.43 nM; % Max Cell Lysis (SKOV3 cells [11]; E:T 3:1, Table 13): 16.9%; EC50 (SKOV3 cells [11]; E:T 3:1, Table 13, read-out: EC50): 1.06 nM; % Max Cell Lysis (SKOV3 cells [11]; E:T 5:1, Table 12): 17.82%; EC50 (SKOV3 cells [11]; E:T 5:1, Table 12, read-out: EC50): ~0.032 nM"
"v6717: biparatopic anti-HER2 antibody, scFv-scFv format (pertuzumab scFv, trastuzumab scFv), heterodimeric Fc",–,247,1082,31,129%,126%,113%,–,48,145,31,–,–,–,1167,–,32 nM,2006,6498,1212,"% Max Cell Lysis (JIMT-1 cells [12]; NK-92 E/T 5:1, Table 43): 51%; EC50 (JIMT-1 cells [12]; NK-92 E/T 5:1, Table 43, read-out: EC50): ~0.72 nM; % Max Cell Lysis (MCF7 cells [13]): 30%; EC50 (MCF7 cells [13]): 109 nM; % Max Cell Lysis(top only) (MDA-MB-231 cells; NK-92 E/T 5:1, Table 45): 63%; EC50 (MDA-MB-231 cells; NK-92 E/T 5:1, Table 45, read-out: EC50): 10 nM; Bmax (BT-474 cells [14]): 36392; Kd (BT-474 cells [14]; apparent KD): 30 nM"
"v7091: biparatopic anti-HER2 antibody, Fab-scFv: pertuzumab Fab chain A, trastuzumab scFv chain B, heterodimeric Fc",85%,426,935,–,61%,119%,61%,35%,77,87,27,4456,14 nM,918,1216,6.5 nM,6.1 nM,2759,5111,2227,"Bmax (WI-38 cells): 371; Kd (WI-38 cells; apparent KD): 8.3 nM; Mean TV % change from Baseline (SKOV3 xenograft [15]; Day 29): +618%; PR (>10% baseline regression) (SKOV3 xenograft [15]; Day 29): 0/11; Responders (TV < 50% of control) (SKOV3 xenograft [15]; Day 29): 4/11; ZRD (TV < 20 mm3) (SKOV3 xenograft [15]; Day 29): 0/11; Mean TV (mm3) (SKOV3 xenograft [15]; Day 29, antibodies 3 mg/kg, IgG 10 mg/kg IV twice per week): 1354 mm3; Median Survival (SKOV3 xenograft [15]; mouse, in vivo): 37 days; Time to progression: Tumor doubling time (SKOV3 xenograft [15]; mouse, in vivo): 16 days"
